## Antibody variant affinities, Ab-14 light chain, assay 1

Binding partner: SARS-CoV-2 spike HR2 peptide, sequence PDVDLGDISGINAS.

Parent scFv Ab-14: VH joined to VL by a 15-residue (Gly4Ser)3 linker. Changes lie in the light chain CDRs alone.
VH: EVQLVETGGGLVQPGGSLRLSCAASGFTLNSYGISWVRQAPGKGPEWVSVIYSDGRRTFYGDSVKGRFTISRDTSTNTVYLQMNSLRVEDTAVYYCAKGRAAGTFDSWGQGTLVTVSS
VL: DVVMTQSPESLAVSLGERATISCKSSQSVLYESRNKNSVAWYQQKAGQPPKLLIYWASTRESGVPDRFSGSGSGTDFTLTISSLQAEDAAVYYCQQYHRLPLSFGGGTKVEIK

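The library (AAYL50) carries one to three amino acid substitutions per variant, with no insertions or deletions. The scFvs were displayed on barcoded MATa yeast, the peptide on MATalpha yeast. The frequency of each diploid, read from paired DNA barcodes, reflects how well the two displayed proteins bind. Each replicate has its own calibration line, from reference interactions of the BCL2 family. Each pool was mated in three replicate cultures.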

Substitutions are numbered in sequence along the VL above, starting at 1 (not Kabat).
Every variant below is changed at S58 of the VL (sequential numbering).
The Kd shown is the geometric mean over detected replicates; a lower Kd is a better binder.
"nd" marks a missing value. The strain was present, yet no cells mated with the target were sequenced in any replicate, which points to weak or no binding.
Empty control strains, which show no peptide, gave a signal in 18% of pairings with library AAYL50; the median was 15 µM and 95% of these signals were weaker than 970 nM. No background was subtracted. For each scFv, signals with the empty controls are counted beside the result.

* Y31T+S33Q+S58A: 41 µM (1 of 3 replicates; controls 0 of 9)
* S25E+S58P: 6.6 µM (2 of 3 replicates; controls 4 of 9)
* R34A+S58F: 39 nM (3 of 3 replicates; controls 1 of 9)
* K24H+S58Q+L100F: 50 nM (3 of 3 replicates; controls 1 of 9)
* K36I+S58Q+H98P: 20 nM (3 of 3 replicates; controls 2 of 9)
* L30Y+S58R+Q95N: nd (0 of 3 replicates; controls 2 of 9)
* R34N+S58C+R60M: 8.6 µM (3 of 3 replicates; controls 5 of 9)
* A57E+S58P+S103Q: 110 µM (2 of 3 replicates; controls 5 of 9)
* W56Y+A57G+S58A: 7.5 nM (3 of 3 replicates; controls 1 of 9)
* Y31M+S58Q: 4.7 µM (3 of 3 replicates; controls 1 of 9)
* Q27R+N35S+S58P: 5.4 µM (2 of 3 replicates; controls 3 of 9)
* K24H+N35M+S58C: 360 nM (3 of 3 replicates; controls 6 of 9)
* S58T+Q95Y: 55 µM (2 of 3 replicates; controls 1 of 9)
* N37K+S58T+E61D: 490 nM (2 of 3 replicates; controls 0 of 9)
* S58F: nd (0 of 3 replicates; controls 0 of 9)
* S58C+H98P: 260 nM (2 of 3 replicates; controls 1 of 9)
* Y31C+V39Y+S58F: nd (0 of 3 replicates; controls 0 of 9)
* S28H+N37I+S58M: 120 nM (1 of 3 replicates; controls 0 of 9)
* V29I+S58N+H98P: 38 nM (3 of 3 replicates; controls 2 of 9)
* S58P+L102N: nd (0 of 3 replicates; controls 0 of 9)
* K36A+N37C+S58Y: 170 nM (3 of 3 replicates; controls 0 of 9)
* V29D+S58R: nd (0 of 3 replicates; controls 1 of 9)
* S58V: 940 nM (2 of 3 replicates; controls 1 of 9)
* S28P+S58F: 24 µM (2 of 3 replicates; controls 2 of 9)
* S25E+S38R+S58P: 81 µM (2 of 3 replicates; controls 1 of 9)
* V29M+S58F: 1.7 µM (1 of 3 replicates; controls 1 of 9)
* S38Y+S58F+L102E: nd (0 of 3 replicates; controls 2 of 9)
* S58R+P101N: 72 nM (3 of 3 replicates; controls 3 of 9)
* S58L+S62E+Q96I: 79 µM (2 of 3 replicates; controls 2 of 9)
* Y31F+S58Y+R60T: nd (0 of 3 replicates; controls 0 of 9)
* E32T+S33G+S58F: 390 nM (3 of 3 replicates; controls 5 of 9)
* L30D+A40S+S58D: 7.0 µM (2 of 3 replicates; controls 1 of 9)
* S58E+P101C: 11 µM (3 of 3 replicates; controls 3 of 9)
* Y31N+N37Y+S58M: 26 nM (3 of 3 replicates; controls 2 of 9)
* S25G+S58F+L102T: nd (0 of 3 replicates; controls 0 of 9)
* K24F+E32S+S58T: 38 nM (3 of 3 replicates; controls 3 of 9)
* S58T+R60S+Y97P: 26 µM (2 of 3 replicates; controls 3 of 9)
* V39C+S58F+T59G: 580 nM (1 of 3 replicates; controls 0 of 9)
* Q27E+E32Q+S58T: 3.0 nM (3 of 3 replicates; controls 0 of 9)
* N35Y+S38L+S58W: nd (0 of 3 replicates; controls 0 of 9)
* S25M+S33M+S58V: 5.8 nM (3 of 3 replicates; controls 3 of 9)
* S58F+Q96L: 11 µM (1 of 3 replicates; controls 3 of 9)
* S25F+S28C+S58R: 140 nM (3 of 3 replicates; controls 3 of 9)
* V29M+W56Q+S58P: 200 µM (2 of 3 replicates; controls 5 of 9)
* S58Y: 35 nM (3 of 3 replicates; controls 0 of 9)
* V39F+S58H+H98P: nd (0 of 3 replicates; controls 0 of 9)
* V29N+N37W+S58I: 20 µM (1 of 3 replicates; controls 2 of 9)
* S26E+S58V: nd (0 of 3 replicates; controls 0 of 9)
* S26K+A57W+S58V: nd (0 of 3 replicates; controls 2 of 9)
* N37P+S58E: 40 nM (3 of 3 replicates; controls 3 of 9)
* N35Q+S38G+S58C: nd (0 of 3 replicates; controls 1 of 9)

Repeated from above, the 3 best binders with a signal in all replicates:

changes,Kd,detected,empty controls
Q27E+E32Q+S58T,3.0 nM,3 of 3,0 of 9
S25M+S33M+S58V,5.8 nM,3 of 3,3 of 9
W56Y+A57G+S58A,7.5 nM,3 of 3,1 of 9

The measurements come from Engelhart et al. 2022 (doi:10.1038/s41597-022-01779-4) through the FLAb antibody collection.